According to US8592464B2, “Nitric oxide furoxan derivative compounds endowed with antitumoral activity” (Humanitas Mirasole S.p.A., priority 2009, dated 2013):

Tested on: cytolytic activity of CD8+ T cells against allogenic (MBL-2) target cells
Experiment: Chromium release assay (in vitro cytotoxicity), B6+C26GM culture: immunosuppressed splenocytes from tumor-bearing mice
Type: cell-based

[O-][n+]1onc2c3no[n+]([O-])c3ccc21
Range of concentration to rescue cytolytic activity: 1.25 µg/mL
